# Apparent affinities of Ab-14 variants for a coronavirus HR2 peptide

Values reported by Li et al. 2023, doi:10.1038/s41467-023-39022-2 (FLAb copy).

Binding partner: SARS-CoV-2 spike HR2 peptide, sequence PDVDLGDISGINAS.

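The parent was found by panning a naive human phage display library on the peptide. The variants were designed computationally from a first round of random CDR variants and then made and measured. Their group label is 14H_En_Gen (En: ensemble of fine-tuned language models; Gen: genetic algorithm). AlphaSeq pools MATa yeast showing the antibodies with MATalpha yeast showing the peptide. Binding brings cells together so that they mate, and sequencing counts the barcode pairs among the diploids. A regression on co-assayed BCL2-family reference pairs converts the normalised counts of each replicate to an apparent Kd. Each pool was mated in six replicate cultures.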

Parent scFv Ab-14: VH joined to VL by the linker GGGGSGGGGSGGGGS. Changes lie in the heavy chain CDRs alone.
VH: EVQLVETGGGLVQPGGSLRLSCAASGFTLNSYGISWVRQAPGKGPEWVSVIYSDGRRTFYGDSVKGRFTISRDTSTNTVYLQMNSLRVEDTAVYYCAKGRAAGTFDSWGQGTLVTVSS
VL: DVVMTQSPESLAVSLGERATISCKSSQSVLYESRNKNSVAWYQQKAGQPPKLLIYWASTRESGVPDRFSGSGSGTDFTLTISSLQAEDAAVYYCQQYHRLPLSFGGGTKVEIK

Each variant is given by its three heavy chain CDRs, as the data file delimits them; those of the parent are GFTLNSYGIS, VIYSDGRRTFYGDSVK, GRAAGTFDS.
The read-out is the apparent dissociation constant on a log10 scale (nM): the lower, the stronger.
The mean shown is taken over the replicates in which the pair was detected.
"nd" means that the variant was in the library but no mating with the target was seen in that replicate; the authors take this as a sign of poor binding, and no number exists.

| CDR-H1 | CDR-H2 | CDR-H3 | replicates, log10 nM | log10 Kd (nM), mean | signal with controls |
|---|---|---|---|---|---|
| GFDLNEYGIS | VIYADGSRTAYADDVK | GNVAGTFDM | -0.49 / -0.41 / -0.49 / -0.70 / -0.82 / 0.19 | -0.45 | 0/18 |
| GFDLDEYGIS | VIYADGQRTAYADSVK | GGNAGTFDL | -0.37 / -0.41 / -0.52 / -0.68 / -0.50 / -0.10 | -0.43 | 0/18 |
| GFDLEEYGIS | VIYADGSRTAYADSVK | GENAGTFDV | -0.54 / 0.14 / 1.17 / 0.32 / -0.18 / -0.16 | 0.12 | 0/18 |
| GFDLNEYGIS | VIYADGMRTAYADDVK | GNTAGTFDI | -0.80 / -0.32 / -0.74 / -0.15 / -0.72 / -0.42 | -0.53 | 0/18 |
| GFDLNEYGIS | VIYADGKRTAYADSVK | GGNAGTFDI | 0.07 / 0.26 / 0.38 / 0.10 / 0.33 / 0.27 | 0.23 | 0/18 |
| GFDLDEYGIS | VIYADGMRTAYADSVK | GEIAGTFDV | -0.23 / -0.34 / -0.37 / -0.62 / -0.45 / -0.16 | -0.36 | 0/18 |
| GFDLNEYGIS | VIYADGKRTAYSDSVK | GNVAGTFDE | 0.00 / -0.28 / -0.70 / -0.60 / -0.10 / -0.32 | -0.33 | 0/18 |
| GFDLDEYGIS | VIYADGQRTAYTDSVK | GEVAGTFDV | 1.16 / 0.58 / 0.27 / 0.80 / 1.16 / 4.15 | 1.35 | 0/18 |
| GFDLNEYGIS | VIYADGKRTAYSDSVK | GENAGTFDT | -0.23 / -0.56 / -0.34 / -0.43 / -0.74 / -0.63 | -0.49 | 0/18 |
| GFDLNEYGIS | VIYADGRRTYYADDVK | GENAGTFDV | -0.39 / -0.49 / -1.12 / -0.71 / -0.79 / -0.13 | -0.60 | 0/18 |
| GFDLNEYGIS | VIYADGVRTAYADSVK | GSVAGTFDV | -0.45 / -0.81 / -0.78 / -0.88 / -0.72 / -0.42 | -0.68 | 0/18 |
| GFDLDEYGIS | VIYADGKRTAYADSVK | GEVAGTFDI | -0.14 / -0.26 / -0.31 / -0.76 / -0.80 / -0.53 | -0.47 | 0/18 |
| GFDLEDYGIS | VIYADGKRTAYADSVK | GNEAGTFDV | -0.24 / -0.34 / -0.27 / -0.36 / -0.25 / -0.20 | -0.28 | 0/18 |
| GFDLNEYGIS | VIYADGMRTAYADSVK | GNAAGTFDL | -0.28 / -0.52 / -0.17 / -0.57 / -0.35 / -0.29 | -0.36 | 0/18 |
| GFDLDEYGIS | VIYADGVRTAYADSVK | GNTAGTFDL | -0.31 / -0.29 / 0.93 / -0.10 / 0.27 / -0.31 | 0.03 | 0/18 |
| GFDLNEYGIS | VIYADGMRTAYVDSVK | GNNAGTFDT | -0.58 / 0.11 / -0.13 / -0.47 / -0.33 / -0.58 | -0.33 | 0/18 |
| GFDLNEYGIS | VIYADGSRTAYSDSVK | GSNAGTFDV | -0.21 / -0.19 / -0.24 / -0.42 / -0.15 / 0.15 | -0.18 | 0/18 |
| GFDLNEYGIS | VIYADGKRTAYTDSVK | GNVAGTFDT | -0.13 / -0.25 / -0.50 / -0.64 / -0.71 / -0.58 | -0.47 | 0/18 |
| GFDLNEYGIS | VIYADGMRTAYIDSVK | GNTAGTFDQ | nd / nd / nd / nd / nd / nd | nd | 0/18 |
| GFDLNEYGIS | VIYADGVRTAYIDSVK | GEVAGTFDV | -0.56 / -0.06 / -0.50 / -0.73 / -0.73 / -0.55 | -0.52 | 0/18 |
| GFDLNEYGIS | VIYADGKRTSYADSVK | GQNAGTFDV | -1.23 / -1.72 / -0.66 / -0.45 / -1.92 / nd | -1.19 | 0/18 |
| GFDLNEYGIS | VIYADGSRTYYADSVK | GENAGTFDV | 0.14 / 0.37 / 0.03 / -0.09 / -0.18 / 0.05 | 0.05 | 0/18 |
| GFDLNEYGIS | VIYADGVRTAYSDDVK | GENAGTFDI | -0.29 / -0.69 / -0.60 / -0.40 / -0.47 / -0.37 | -0.47 | 0/18 |
| GFDLDEYGIS | VIYADGKRTAYSDSVK | GEVAGTFDT | -0.50 / -1.16 / -0.60 / -1.07 / -1.61 / -0.44 | -0.90 | 0/18 |
| GFDLNEYGIS | VIYADGMRTFYTDSVK | GNVAGTFDQ | -0.45 / -0.31 / -0.85 / -0.77 / -0.59 / -0.40 | -0.56 | 0/18 |
| GFDLNEYGIS | VIYADGRRTAYSDSVK | GGNAGTFDV | -0.52 / -0.31 / -0.23 / -0.53 / -0.60 / -0.43 | -0.44 | 1/18 (1.55) |
| GFDLDEYGIS | VIYADGRRTAYSDSVK | GNEAGTFDV | nd / -0.23 / nd / nd / -0.08 / -1.08 | -0.47 | 0/18 |
| GFDLNEYGIS | VIYADGVRTAYADSVK | GNEAGTFDT | -0.54 / -0.59 / -0.57 / -0.46 / -0.71 / -0.52 | -0.56 | 0/18 |
| GFDLDEYGIS | VIYADGTRTAYADSVK | GENAGTFDV | 0.79 / -0.14 / 0.87 / 1.40 / 0.46 / 1.22 | 0.77 | 0/18 |
| GFDLDEYGIS | VIYADGKRTAYVDSVK | GENAGTFDV | -0.42 / 0.15 / -0.19 / -0.44 / -0.58 / -0.35 | -0.31 | 0/18 |
| GFDLNEYGIS | VIYADGMRTAYVDTVK | GNVAGTFDV | 0.57 / 0.30 / 0.32 / 0.19 / 0.37 / 0.37 | 0.35 | 0/18 |
| GFDLNEYGIS | VIYADGRRTAYADKVK | GNVAGTFDI | -0.53 / -0.58 / -0.86 / -0.82 / -1.19 / -0.70 | -0.78 | 0/18 |
| GFDLNEYGIS | VIYADGMRTAYADDVK | GENAGTFDI | 0.33 / 0.60 / 0.44 / 0.06 / 0.33 / 0.27 | 0.34 | 0/18 |
| GFDLDEYGIS | VIYADGMRTAYADNVK | GNVAGTFDI | -0.74 / 0.31 / -1.45 / -1.07 / -0.88 / -0.43 | -0.71 | 0/18 |
| GFDLNEYGIS | VIYADGSRTAYADDVK | GNVAGTFDT | -0.03 / 0.07 / -0.17 / -0.28 / -0.11 / 0.23 | -0.05 | 0/18 |
| GFDLNEYGIS | VIYADGRRTAYADSVK | GNNAGTFDV | 0.16 / 0.01 / -0.42 / -0.25 / -0.53 / -0.29 | -0.22 | 0/18 |
| GFDLNEYGIS | VIYADGKRTAYVDSVK | GNNAGTFDV | 0.04 / -0.40 / 0.01 / -0.06 / -0.23 / -0.06 | -0.12 | 0/18 |
| GFDLNEYGIS | VIYADGSRTAYADSVK | GQNAGTFDI | -0.31 / -0.69 / -0.56 / -0.39 / -0.32 / -0.45 | -0.45 | 0/18 |
| GFDLNEYGIS | VIYADGMRTFYSDSVK | GNVAGTFDI | -0.14 / -0.19 / -0.37 / -0.43 / -0.16 / -0.28 | -0.26 | 0/18 |
| GFDLDEYGIS | VIYADGMRTAYSDDVK | GNQAGTFDV | -0.50 / -0.33 / -0.71 / -0.75 / -0.62 / -0.38 | -0.55 | 0/18 |
| GFDLNEYGIS | VIYADGVRTAYADSVK | GTNAGTFDI | 0.11 / -0.53 / -0.33 / -0.61 / -0.57 / -0.43 | -0.39 | 0/18 |

A selection of 3 entries from above:

CDR-H1	CDR-H2	CDR-H3	replicates, log10 nM	log10 Kd (nM), mean	signal with controls
GFDLDEYGIS	VIYADGRRTAYSDSVK	GNEAGTFDV	nd / -0.23 / nd / nd / -0.08 / -1.08	-0.47	0/18
GFDLNEYGIS	VIYADGMRTAYVDSVK	GNNAGTFDT	-0.58 / 0.11 / -0.13 / -0.47 / -0.33 / -0.58	-0.33	0/18
GFDLDEYGIS	VIYADGMRTAYADSVK	GEIAGTFDV	-0.23 / -0.34 / -0.37 / -0.62 / -0.45 / -0.16	-0.36	0/18

Of ten entries with the parent sequence, four were seen in most replicates (averages 0.34 to 2.37), three in one and three in none, so single entries are noisy.
Three control strains display no target. For all heavy chain designs, 1% of the pairings with them gave a signal, with a median of 2.08 and one signal in twenty below 0.84, so weak values seen in few replicates may be background. For each scFv, signals with the empty controls are counted beside the result, with their mean in brackets.
The authors averaged sequences with at least three values out of six and counted those with two or fewer as poor binders.
A sequence measured in both rounds can read differently, since the two assays cover different ranges.